Laboratory results reported in PubChem BioAssay (NCI).
Only a part is listed here, and it is no random draw.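 In brief: 96-well plates, 48 h treatment, single concentration, percent growth endpoint.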 Active and inactive are the calls of the source. The calls were made as follows: active = growth percent below 10; inactive = the rest.

Key:
Experiment in all cases: NCI-60 one-dose screen, 48 h (100 = growth as untreated, 0 = no growth, -100 = all killed)
Settings in all cases: 10 µM unless noted
SK-MEL-2 melanoma = test system: SK-MEL-2 melanoma
SN12C renal = test system: SN12C renal
UO-31 renal = test system: UO-31 renal
TK-10 renal = test system: TK-10 renal
ACHN renal = test system: ACHN renal
CAKI-1 renal = test system: CAKI-1 renal
A498 renal = test system: A498 renal
HL-60(TB) leukemia = test system: HL-60(TB) leukemia
CCRF-CEM leukemia = test system: CCRF-CEM leukemia

Measured: growth

O=C(C(=O)c1ccc([N+](=O)[O-])cc1[N+](=O)[O-])c1ccc([N+](=O)[O-])cc1[N+](=O)[O-]
inactive: SK-MEL-2 melanoma 90.1% | SN12C renal 102% | UO-31 renal 87.5% | TK-10 renal 116% | ACHN renal 103% | CAKI-1 renal 93.8% | A498 renal 96.8% | HL-60(TB) leukemia 89.8% | CCRF-CEM leukemia 89.3%

CC(C)OP(=S)(Cl)OC(C)C
inactive: SK-MEL-2 melanoma 88.7% | SN12C renal 114% | UO-31 renal 82.5% | TK-10 renal 97.4% | ACHN renal 112% | CAKI-1 renal 112% | A498 renal 103% | HL-60(TB) leukemia 94.9% | CCRF-CEM leukemia 93.2%

O=[As](O)(O)c1ccc(I)cc1
inactive: SK-MEL-2 melanoma 110% | SN12C renal 103% | UO-31 renal 95.2% | TK-10 renal 111% | ACHN renal 98.1% | CAKI-1 renal 97.7% | A498 renal 108% | HL-60(TB) leukemia 94.5%

O=C(O)C(=O)c1ccc(N(CCCl)CCCl)cc1
inactive: SK-MEL-2 melanoma 95.5% | SN12C renal 103% | UO-31 renal 87.7% | TK-10 renal 101% | ACHN renal 101% | CAKI-1 renal 101% | A498 renal 103% | HL-60(TB) leukemia 101% | CCRF-CEM leukemia 98.8%

O=[N+]([O-])C1C(O)C(O)C([N+](=O)[O-])C(O)C1O (stereo unspecified)
inactive: SK-MEL-2 melanoma 118% | SN12C renal 92.8% | UO-31 renal 79% | TK-10 renal 112% | ACHN renal 112% | CAKI-1 renal 97% | A498 renal 96.3% | HL-60(TB) leukemia 97.6%

COc1ccc(C(=O)N(CCCl)CCCl)cc1OC
inactive: SK-MEL-2 melanoma 89.4% | SN12C renal 108% | UO-31 renal 95.7% | TK-10 renal 113% | ACHN renal 97.9% | CAKI-1 renal 97.7% | A498 renal 119% | HL-60(TB) leukemia 80%

N/C(=N/[N+](=O)[O-])N(CCBr)N=O
inactive: SK-MEL-2 melanoma 86% | SN12C renal 105% | UO-31 renal 87% | TK-10 renal 89.6% | ACHN renal 97.5% | CAKI-1 renal 84% | A498 renal 108% | HL-60(TB) leukemia 94.2%

COc1cccc([As]=O)c1 (stereo unspecified)
active: SK-MEL-2 melanoma -83.1% | SN12C renal -98% | UO-31 renal -93.2% | TK-10 renal -93.6% | ACHN renal -99.1% | CAKI-1 renal -95.6% | A498 renal -95.6% | HL-60(TB) leukemia -68.6%

CCP(Cl)(Cl)(Cl)CC
inactive: SK-MEL-2 melanoma 89.8% | SN12C renal 94.1% | UO-31 renal 72.1% | TK-10 renal 99.5% | ACHN renal 90.3% | CAKI-1 renal 88.9% | A498 renal 103% | HL-60(TB) leukemia 85.9%

CCN(CCCl)CC1OC(O)C(O)C1O (stereo unspecified)
inactive: SK-MEL-2 melanoma 137% | SN12C renal 98.9% | UO-31 renal 101% | TK-10 renal 116% | ACHN renal 101% | CAKI-1 renal 80.8% | A498 renal 104% | HL-60(TB) leukemia 114%

Cc1ccc(S(=O)(=O)N(CCCN)CCCc2c(C)nc(N)[nH]c2=O)cc1
inactive: SK-MEL-2 melanoma 103% | SN12C renal 85.7% | UO-31 renal 72.1% | TK-10 renal 115% | ACHN renal 99.8% | CAKI-1 renal 94.3% | A498 renal 97.4% | HL-60(TB) leukemia 102% | CCRF-CEM leukemia 92.7%

S=C(Nc1ccccc1)N(CCCl)CCCl
inactive: SK-MEL-2 melanoma 77.4% | SN12C renal 103% | UO-31 renal 93.8% | TK-10 renal 109% | ACHN renal 97.1% | CAKI-1 renal 97.5% | A498 renal 99.9% | HL-60(TB) leukemia 97.3%

Nc1ccc(N(CCCl)CCCl)cc1
active: CAKI-1 renal -8.97%
inactive: SK-MEL-2 melanoma 132% | SN12C renal 39.5% | UO-31 renal 49.9% | TK-10 renal 96.2% | ACHN renal 20.9% | A498 renal 113% | HL-60(TB) leukemia 17.2%

Cc1ccc(NCCCl)c2c(=O)c3ccccc3sc12
inactive: SK-MEL-2 melanoma 105% | SN12C renal 97.4% | UO-31 renal 84.7% | TK-10 renal 105% | ACHN renal 109% | CAKI-1 renal 93.9% | A498 renal 78.7% | HL-60(TB) leukemia 77.1% | CCRF-CEM leukemia 97.8%

O=C(N(CCCl)CCCl)C(Cl)(Cl)Cl
inactive: SK-MEL-2 melanoma 105% | SN12C renal 105% | UO-31 renal 102% | TK-10 renal 106% | ACHN renal 99.7% | CAKI-1 renal 85.2% | A498 renal 114% | HL-60(TB) leukemia 107%

CCCCOP(OCCCC)OCCCC
inactive: SK-MEL-2 melanoma 99.7% | SN12C renal 108% | UO-31 renal 98.4% | TK-10 renal 97.8% | ACHN renal 94.4% | CAKI-1 renal 99.8% | A498 renal 124% | HL-60(TB) leukemia 116% | CCRF-CEM leukemia 107%

Cc1ccc(SP(=O)(CCl)N(CCCl)CCCl)cc1 (stereo unspecified)
inactive: SK-MEL-2 melanoma 83.5% | SN12C renal 101% | UO-31 renal 84.6% | TK-10 renal 97% | ACHN renal 94.4% | CAKI-1 renal 87.7% | A498 renal 101% | HL-60(TB) leukemia 97%

O=C(OCCNCCCl)c1ccccc1
inactive: SK-MEL-2 melanoma 145% | SN12C renal 103% | UO-31 renal 103% | TK-10 renal 134% | ACHN renal 95% | CAKI-1 renal 86.4% | A498 renal 108% | HL-60(TB) leukemia 100%

CCOP(=S)(OCC)SCCCl
inactive: SK-MEL-2 melanoma 85.6% | SN12C renal 93.6% | UO-31 renal 98.4% | TK-10 renal 109% | ACHN renal 107% | CAKI-1 renal 99.1% | A498 renal 106% | HL-60(TB) leukemia 104% | CCRF-CEM leukemia 94%

O=C1NC(c2ccccc2)(c2ccccc2)C(=O)N1P(=O)(Oc1ccccc1)Oc1ccccc1
inactive: SK-MEL-2 melanoma 105% | SN12C renal 95.9% | UO-31 renal 81.5% | TK-10 renal 107% | ACHN renal 108% | CAKI-1 renal 98.2% | A498 renal 89.3% | HL-60(TB) leukemia 89.5% | CCRF-CEM leukemia 91.7%

O=C(c1ccc(F)cc1)N(CCCl)CCCl
inactive: SK-MEL-2 melanoma 105% | SN12C renal 107% | UO-31 renal 92.6% | TK-10 renal 94.8% | ACHN renal 98.5% | CAKI-1 renal 90.9% | A498 renal 108% | HL-60(TB) leukemia 107%

O=C(O)/C=C\c1cccc(N(CCCl)CCCl)c1
inactive: SK-MEL-2 melanoma 133% | SN12C renal 99.7% | UO-31 renal 87.8% | TK-10 renal 110% | ACHN renal 94.8% | CAKI-1 renal 61.4% | A498 renal 105% | HL-60(TB) leukemia 106%

ClCC1CS1 (stereo unspecified)
inactive: SK-MEL-2 melanoma 104% | SN12C renal 108% | UO-31 renal 84.4% | TK-10 renal 91.1% | ACHN renal 110% | CAKI-1 renal 99.6% | A498 renal 117% | HL-60(TB) leukemia 99%

CN(CCCl)CC1OC(O)C(O)C(O)C1O (stereo unspecified)
inactive: SK-MEL-2 melanoma 120% | SN12C renal 103% | UO-31 renal 87.4% | TK-10 renal 96% | ACHN renal 96.5% | CAKI-1 renal 105% | A498 renal 107% | HL-60(TB) leukemia 104%

OP1OCCO1
inactive: SK-MEL-2 melanoma 97.3% | SN12C renal 101% | UO-31 renal 85.7% | TK-10 renal 109% | ACHN renal 102% | CAKI-1 renal 89.1% | A498 renal 110% | HL-60(TB) leukemia 111%

Nc1ccc(CCCCOc2ccccc2)cc1
inactive: SK-MEL-2 melanoma 99.4% | SN12C renal 50.4% | UO-31 renal 41.9% | TK-10 renal 92.2% | ACHN renal 108% | CAKI-1 renal 98.8% | A498 renal 74.4% | HL-60(TB) leukemia 28.4% | CCRF-CEM leukemia 24.1%

C/C(N)=N\P(=O)(OCc1ccccc1)OCc1ccccc1
inactive: SK-MEL-2 melanoma 118% | SN12C renal 94.8% | UO-31 renal 83% | TK-10 renal 106% | ACHN renal 99.6% | CAKI-1 renal 96.4% | A498 renal 99.1% | HL-60(TB) leukemia 112% | CCRF-CEM leukemia 105%

Cc1ccc(C)c(C(=O)N(CCCl)CCCl)c1
inactive: SK-MEL-2 melanoma 101% | SN12C renal 104% | UO-31 renal 87.5% | TK-10 renal 111% | ACHN renal 99% | CAKI-1 renal 104% | A498 renal 103% | HL-60(TB) leukemia 104%

Cc1ccccc1C(=O)N(CCCl)CCCl
inactive: SK-MEL-2 melanoma 92.1% | SN12C renal 97.2% | UO-31 renal 94.2% | TK-10 renal 132% | ACHN renal 95.3% | CAKI-1 renal 115% | A498 renal 113% | HL-60(TB) leukemia 86.7%

NP(=O)(N(CCCl)CCCl)N1CC1 (stereo unspecified)
inactive: SK-MEL-2 melanoma 95.3% | SN12C renal 103% | UO-31 renal 89.8% | TK-10 renal 91.9% | ACHN renal 99.5% | CAKI-1 renal 95% | A498 renal 103% | HL-60(TB) leukemia 90.5%

Cn1c(=O)c2[nH]c(N(CCCl)CCCl)nc2n(C)c1=O
inactive: SK-MEL-2 melanoma 99.3% | SN12C renal 109% | UO-31 renal 74.1% | TK-10 renal 102% | ACHN renal 93.6% | CAKI-1 renal 93.8% | A498 renal 108% | HL-60(TB) leukemia 87.1%

CC(/C=N/N=C(\N)N[N+](=O)[O-])=N\N=C(/N)N[N+](=O)[O-]
inactive: SK-MEL-2 melanoma 152% | SN12C renal 101% | UO-31 renal 97.9% | TK-10 renal 119% | ACHN renal 96% | CAKI-1 renal 96.7% | A498 renal 102% | HL-60(TB) leukemia 90.2%

O=P(CCl)(Sc1ccc(Cl)cc1)N(CCCl)CCCl (stereo unspecified)
inactive: SK-MEL-2 melanoma 73.3% | SN12C renal 108% | UO-31 renal 79.2% | TK-10 renal 89.6% | ACHN renal 94.5% | CAKI-1 renal 91% | A498 renal 87.6% | HL-60(TB) leukemia 91.1%

CC(=O)NC(C)C(=O)N(CC(C)Cl)CC(C)Cl (stereo unspecified)
inactive: SK-MEL-2 melanoma 108% | SN12C renal 96.4% | UO-31 renal 90.2% | TK-10 renal 108% | ACHN renal 89.5% | CAKI-1 renal 96.3% | A498 renal 104% | HL-60(TB) leukemia 87.1%

NCCc1ccc(N(CCCl)CCCl)cc1
inactive: SK-MEL-2 melanoma 112% | SN12C renal 39.3% | UO-31 renal 51.7% | TK-10 renal 94.7% | ACHN renal 19.7% | A498 renal 94.2% | HL-60(TB) leukemia 15.9% | CCRF-CEM leukemia 21.6%
active: CAKI-1 renal -13%
